The test system of experiment [1] is slow axonal transport of 2H-labeled tubulin. In words: MT-mediated slow axonal transport of 2H-labeled tubulin in L5 root and sciatic nerve of SOD1G93A mice. The conditions noted are these: 13 weeks old mice, 3 weeks treatment. It counts as in vivo, mouse.
In experiment [2] the test system is fast axonal transport of 2H-labeled cargo proteins. In words: MT-mediated fast axonal transport: CSF secretion kinetics and spinal cord retention of 2H-labeled cargo proteins in symptomatic SOD1G93A mice. It is filed as in vivo, mouse. The conditions noted are these: symptomatic ALS SOD1G93A, vs age-matched wild type; n=10 per time point.
The test system of the next experiment is ALS SOD1 G93A mouse. The conditions noted are these: published; untreated control 10-12 days; cited from earlier work.

The values below come from US20140274785A1, “BIOMARKERS” (priority 2013, published 2014).

In the case of `Nc1nc2ccc(OC(F)(F)F)cc2s1` [Riluzole], in experiment [1], the “rate of slow axonal transport of 2H-labeled tubulin along the axon” value is reported as “no significant effect”. The “transport rates of 2H-Chr-B, 2H-NeuR-1 and 2H-sAPP in CSF” value in experiment [2] was “much less of an effect”. Also, in the experiment on ALS SOD1 G93A mouse, the “Onset to Death” value was 14 to 20 days.
